Assay results from PubChem BioAssay AID488837 (National Center for Advancing Translational Sciences (NCATS), 2010).
The entries are a selection whose mix differs from that of the whole data set. Some of these compounds have results that are not shown, active ones among them. Calls of active or inactive are those of the source. Calls come from the whole dose curve; as a rule, active = well fitted inhibition curve with a large enough effect; inconclusive = small, poorly fitted or top-dose-only effect, or effect the other way; inactive = flat fitted curve, though single readings scatter.
% is set by controls: 0 for no effect and ±100 for the full control effect.

Sequences of proteins named here, by UniProt entry; tags and fusion partners are left off.
UniProt O00167, whole entry: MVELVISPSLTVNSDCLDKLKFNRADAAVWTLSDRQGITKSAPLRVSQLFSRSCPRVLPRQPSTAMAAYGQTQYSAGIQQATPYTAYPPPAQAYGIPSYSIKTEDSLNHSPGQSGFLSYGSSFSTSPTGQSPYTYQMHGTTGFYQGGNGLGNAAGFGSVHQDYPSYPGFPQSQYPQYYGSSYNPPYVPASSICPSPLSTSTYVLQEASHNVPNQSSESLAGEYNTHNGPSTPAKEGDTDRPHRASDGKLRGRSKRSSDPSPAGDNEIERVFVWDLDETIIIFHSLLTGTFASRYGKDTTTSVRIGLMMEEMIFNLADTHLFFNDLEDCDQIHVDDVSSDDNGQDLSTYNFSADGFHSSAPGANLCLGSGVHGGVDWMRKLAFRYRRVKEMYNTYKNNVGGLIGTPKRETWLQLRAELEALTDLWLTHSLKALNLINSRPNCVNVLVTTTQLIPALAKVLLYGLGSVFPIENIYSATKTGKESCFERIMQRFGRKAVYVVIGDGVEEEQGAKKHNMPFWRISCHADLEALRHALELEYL

What follows are compounds tested against Protein phosphatase EYA2 (Homo sapiens) (UniProt O00167) (assay: qHTS Assay for Inhibitors of the Phosphatase Activity of Eya2). Conditions: recombinant Eya2, OMFP fluorescence dephosphorylation (OMFP is methylfluorescein phosphate); at 76.9 µM (top of the series).
Text: The Eya family of proteins are essential co-activators of the Six1 transcription factor. Six1 is a developmental gene that is abnormally re-expressed in a large percentage of breast cancers. This over-expression plays a causal role in the initiation and metastatic development of breast cancers. The Eya family of proteins was also found to contain a unique HAD phosphatase domain with protein tyrosine phosphatase activity which can potentially play a role in Six1-mediated breast tumorigenesis. […] We have developed and optimized a 1536 well fluorescence-based HTS assay targeting the phosphatase activity of Eya2. Inhibitors found against Eya2 could serve as potential therapeutic tools to inhibit Six1-mediated breast tumorigenesis and to increase the efficiency of radiation and certain chemo therapy. These inhibitors could also be used as chemical probes to study the function of Eya2's phosphatase activity and its role in Six1-mediated breast tumorigenesis.
The Eya2 enzyme was kindly provided by the laboratory of Dr. Rui Zhao. The 3-O-methyl-fluorescein phosphate (OMFP) substrate and all buffer reagents were purchased from Sigma Aldrich. qHTS Assay Setup: 1. Buffer- 50 mM HEPES pH 7.5, 50 mM NaCl, 5 uM MgCl2, 0.05% BSA, 1 mM DTT. 2. OMFP Stock- 10 mM solution prepared in 100% DMSO and stored in single use aliquots at -20C. Assay Procedure- 1. Dispense 1.5 ul per well of Eya2 at 0.2 uM in black medium binding 1536 well Greiner plate 2. Transfer 23 nl of compound and control compound (EGTA) to plate 3. Incubate at ambient for 10 minutes 4. Dispense 1.5 ul per well of OMFP at 50 uM 5. Incubate at ambient for 10 minutes 6. Read on ViewLux using Excitation = 485 nm, Emission = 525 nm
With `COc1ccc(Br)c(C(=O)NCC2(N3CCCCC3)CCCCC2)c1` the activity, negative = inhibition was inactive: -28.2%.
With `CC(C)Oc1ccc(C(=O)NCC2(N(C)C)CCCCC2)cc1` the activity, negative = inhibition was inactive: 14.9%.
`CN(C)c1cccc(C(=O)NCC2(N(C)C)CCCCC2)c1` was tested, and the activity, negative = inhibition was inactive: 0.339%.
`O=C(OC1CN2CCC1CC2)C(CO)(c1ccccc1)c1ccccc1` (stereo not drawn) was tested, and the activity, negative = inhibition was inactive: 4.87%.
With `COc1cccc(C(=O)NCC2(N3CCCCC3)CCCCC2)c1` the activity, negative = inhibition was inactive: 6.19%.
With `COc1ccc(Cl)cc1C(=O)NCC1(N(C)C)CCCCC1` the activity, negative = inhibition was inactive: 5.54%.
`O=C(NCC1(N2CCCCC2)CCCCC1)c1cccc(Cl)c1` was tested, and the activity, negative = inhibition was inactive: 16.5%.
In the case of `CN(C)C1(CNC(=O)c2ccc(Br)cc2)CCCCC1`, the activity, negative = inhibition is reported as inactive: 5.46%.
In the case of `C=CCN1CCN(CCOC(=O)C(O)(c2ccccc2)c2ccccc2)CC1`, the activity, negative = inhibition is reported as inactive: 4.09%.
For `O=C(NCC1(N2CCCCC2)CCCCC1)c1cc(F)c(F)cc1Cl`, the activity, negative = inhibition was inactive: -3.04%.
In the case of `COc1ccc(C(=O)NCC2(N(C)C)CCCCC2)cc1`, the activity, negative = inhibition is reported as inactive: 7.69%.
`Cc1cc(C(=O)NCC2(N3CCCCC3)CCCCC2)ccc1[N+](=O)[O-]` was tested, and the activity, negative = inhibition was inactive: 8.67%.
`CCN1CCCC(OC(=O)C2(O)c3ccccc3C=Cc3ccccc32)C1` (stereo not drawn) was tested, and the activity, negative = inhibition was inactive: -1.83%.
`O=C(NCC1(N2CCCCC2)CCCCC1)c1cccc(Br)c1` was tested, and the activity, negative = inhibition was inactive: -24.1%.
For `Cc1ccccc1C(=O)NCC1(N2CCCCC2)CCCCC1`, the activity, negative = inhibition was inactive: -3.67%.
For `CN(C)C1CCCC1OC(=O)C(O)(c1ccccc1)c1ccccc1` (stereo not drawn), the activity, negative = inhibition was inactive: 8.22%.
`CN(C)c1ccc(C(=O)NCC2(N(C)C)CCCCC2)cc1` was tested, and the activity, negative = inhibition was inactive: -12.7%.
With `CCN(CC)CC(C)C(C)OC(=O)C(O)(c1ccccc1)c1ccccc1` (stereo not drawn) the activity, negative = inhibition was inactive: 7.59%.
In the case of `COc1cc(SC)ccc1C(=O)NCC1(N(C)C)CCCCC1`, the activity, negative = inhibition is reported as inactive: -2.66%.
`CC(C)N1C(=O)CC2(CCN(CCOC(=O)C(O)(c3ccccc3)c3ccccc3)CC2)C1=O` was tested, and the activity, negative = inhibition was inactive: 3.75%.
With `Cc1ccc(C(=O)NCC2(N3CCCCC3)CCCCC2)cc1` the activity, negative = inhibition was inactive: 0.283%.
In the case of `O=C(NCC1(N2CCCCC2)CCCCC1)c1cc([N+](=O)[O-])ccc1Cl`, the activity, negative = inhibition is reported as inactive: -12.7%.
For `CN1[C@@H]2CC[C@H]1CC(OC(=O)C(O)(c1ccccc1)c1ccccc1)C2` (stereo partly drawn), the activity, negative = inhibition was inactive: 8.52%.
